Test results from PMC6478789, “A chemical toolbox for the study of bromodomains and epigenetic signaling” (Nature Communications, 2019).
Like-named read-outs stand apart in the source and are kept apart here.

The chains behind the UniProt entries cited, without tags or fusion partners. Residues count along the entry.
UniProt P51532, 1453-1564 limits assumed: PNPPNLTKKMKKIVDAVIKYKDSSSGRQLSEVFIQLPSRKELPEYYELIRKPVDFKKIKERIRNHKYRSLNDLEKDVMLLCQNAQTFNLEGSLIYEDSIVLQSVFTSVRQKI
UniProt Q9NPI1, 131-235 limits assumed: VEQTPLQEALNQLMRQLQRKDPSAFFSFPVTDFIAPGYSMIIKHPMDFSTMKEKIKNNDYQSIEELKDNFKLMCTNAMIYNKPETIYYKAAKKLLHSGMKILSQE
UniProt P25440, 71-455 limits assumed: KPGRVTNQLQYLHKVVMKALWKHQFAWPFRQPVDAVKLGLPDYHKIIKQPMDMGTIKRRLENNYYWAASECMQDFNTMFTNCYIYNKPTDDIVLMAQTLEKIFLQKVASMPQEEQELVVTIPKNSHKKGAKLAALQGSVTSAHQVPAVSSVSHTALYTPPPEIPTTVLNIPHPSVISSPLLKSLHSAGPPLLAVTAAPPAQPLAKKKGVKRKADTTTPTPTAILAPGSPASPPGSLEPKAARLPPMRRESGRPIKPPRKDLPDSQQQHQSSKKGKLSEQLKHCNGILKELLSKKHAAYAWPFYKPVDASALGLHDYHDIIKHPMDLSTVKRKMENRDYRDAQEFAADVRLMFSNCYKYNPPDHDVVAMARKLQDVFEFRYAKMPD
UniProt P25440, 344-453 limits assumed: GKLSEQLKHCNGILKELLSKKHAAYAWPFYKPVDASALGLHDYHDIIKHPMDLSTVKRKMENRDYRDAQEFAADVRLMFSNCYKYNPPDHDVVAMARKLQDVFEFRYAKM
UniProt P25440, 74-180 limits assumed: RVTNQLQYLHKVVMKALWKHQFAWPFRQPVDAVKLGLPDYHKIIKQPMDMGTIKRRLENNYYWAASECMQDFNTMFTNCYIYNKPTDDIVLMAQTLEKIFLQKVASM
UniProt P11309, 38-290 limits assumed, species assumed: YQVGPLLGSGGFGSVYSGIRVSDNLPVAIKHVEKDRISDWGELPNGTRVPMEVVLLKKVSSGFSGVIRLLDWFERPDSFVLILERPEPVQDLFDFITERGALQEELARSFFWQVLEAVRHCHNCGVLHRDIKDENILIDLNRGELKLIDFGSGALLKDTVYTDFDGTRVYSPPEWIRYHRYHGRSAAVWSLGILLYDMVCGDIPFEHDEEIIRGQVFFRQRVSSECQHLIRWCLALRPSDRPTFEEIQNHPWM
UniProt Q9H7E2, 555-615 limits assumed, species assumed: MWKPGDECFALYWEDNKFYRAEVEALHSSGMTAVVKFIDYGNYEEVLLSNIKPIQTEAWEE
UniProt O96013, 321-572 limits assumed, species assumed: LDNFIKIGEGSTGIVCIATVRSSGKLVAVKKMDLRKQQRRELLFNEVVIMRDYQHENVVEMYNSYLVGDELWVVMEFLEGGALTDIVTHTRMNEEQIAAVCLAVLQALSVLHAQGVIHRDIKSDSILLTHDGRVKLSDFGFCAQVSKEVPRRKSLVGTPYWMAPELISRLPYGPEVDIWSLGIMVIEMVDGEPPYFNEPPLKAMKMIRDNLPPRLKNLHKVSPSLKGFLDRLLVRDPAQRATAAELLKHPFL
UniProt P07332, 561-822 limits assumed, species assumed: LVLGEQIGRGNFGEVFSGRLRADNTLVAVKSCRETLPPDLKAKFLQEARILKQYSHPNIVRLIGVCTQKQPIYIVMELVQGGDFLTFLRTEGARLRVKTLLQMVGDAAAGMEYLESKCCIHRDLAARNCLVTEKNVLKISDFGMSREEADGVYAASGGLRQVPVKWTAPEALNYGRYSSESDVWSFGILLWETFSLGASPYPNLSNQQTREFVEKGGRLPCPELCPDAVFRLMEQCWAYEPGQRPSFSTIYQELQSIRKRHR
UniProt Q7KZF4, 729-787 limits assumed, species assumed: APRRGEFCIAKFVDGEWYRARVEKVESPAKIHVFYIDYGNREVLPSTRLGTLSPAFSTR
UniProt O75530, whole entry, species assumed: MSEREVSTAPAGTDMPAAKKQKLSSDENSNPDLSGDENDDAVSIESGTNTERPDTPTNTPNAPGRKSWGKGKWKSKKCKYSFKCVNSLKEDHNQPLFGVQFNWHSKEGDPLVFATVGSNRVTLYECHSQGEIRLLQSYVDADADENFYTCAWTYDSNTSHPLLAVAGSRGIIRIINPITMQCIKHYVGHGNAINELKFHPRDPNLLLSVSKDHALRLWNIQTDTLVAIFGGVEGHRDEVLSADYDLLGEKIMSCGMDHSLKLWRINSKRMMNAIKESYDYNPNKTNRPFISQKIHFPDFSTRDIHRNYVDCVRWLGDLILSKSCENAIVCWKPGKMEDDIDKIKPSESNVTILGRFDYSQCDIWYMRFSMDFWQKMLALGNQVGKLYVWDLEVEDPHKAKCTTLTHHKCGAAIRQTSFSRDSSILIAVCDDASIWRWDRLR
UniProt P48730, 9-277 limits assumed, species assumed: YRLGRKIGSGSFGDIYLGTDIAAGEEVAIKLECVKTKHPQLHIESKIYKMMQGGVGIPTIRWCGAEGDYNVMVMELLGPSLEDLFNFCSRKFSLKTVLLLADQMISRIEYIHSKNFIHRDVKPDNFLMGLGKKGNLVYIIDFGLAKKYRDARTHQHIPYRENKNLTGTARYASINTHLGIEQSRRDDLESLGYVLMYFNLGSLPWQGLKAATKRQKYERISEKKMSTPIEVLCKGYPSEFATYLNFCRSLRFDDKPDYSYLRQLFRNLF
UniProt P29317, 613-875 limits assumed, species assumed: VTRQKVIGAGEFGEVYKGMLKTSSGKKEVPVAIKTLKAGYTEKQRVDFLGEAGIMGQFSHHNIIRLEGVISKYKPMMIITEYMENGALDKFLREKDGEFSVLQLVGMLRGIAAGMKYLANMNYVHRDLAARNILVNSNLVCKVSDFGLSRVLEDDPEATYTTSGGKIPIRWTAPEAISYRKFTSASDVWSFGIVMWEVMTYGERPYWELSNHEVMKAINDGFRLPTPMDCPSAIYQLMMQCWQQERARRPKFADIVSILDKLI
UniProt O43293, 13-275 limits assumed, species assumed: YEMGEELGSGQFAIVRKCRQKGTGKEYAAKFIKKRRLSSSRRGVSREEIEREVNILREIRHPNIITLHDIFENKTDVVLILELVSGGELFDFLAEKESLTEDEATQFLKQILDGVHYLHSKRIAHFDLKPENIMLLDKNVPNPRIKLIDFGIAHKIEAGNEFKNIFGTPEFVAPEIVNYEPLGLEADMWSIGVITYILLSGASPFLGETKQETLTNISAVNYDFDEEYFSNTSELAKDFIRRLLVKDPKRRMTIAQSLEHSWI
UniProt Q96T88, 126-285 limits assumed: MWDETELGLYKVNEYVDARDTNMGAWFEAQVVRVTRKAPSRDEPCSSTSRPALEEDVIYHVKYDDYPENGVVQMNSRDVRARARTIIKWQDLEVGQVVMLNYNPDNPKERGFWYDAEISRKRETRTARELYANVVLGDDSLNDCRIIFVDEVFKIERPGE
UniProt P55201, 1085-1168 limits assumed, species assumed: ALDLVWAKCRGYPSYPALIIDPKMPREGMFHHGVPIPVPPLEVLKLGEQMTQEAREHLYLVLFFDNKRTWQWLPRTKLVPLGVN
UniProt P51813, 417-675 limits assumed, species assumed: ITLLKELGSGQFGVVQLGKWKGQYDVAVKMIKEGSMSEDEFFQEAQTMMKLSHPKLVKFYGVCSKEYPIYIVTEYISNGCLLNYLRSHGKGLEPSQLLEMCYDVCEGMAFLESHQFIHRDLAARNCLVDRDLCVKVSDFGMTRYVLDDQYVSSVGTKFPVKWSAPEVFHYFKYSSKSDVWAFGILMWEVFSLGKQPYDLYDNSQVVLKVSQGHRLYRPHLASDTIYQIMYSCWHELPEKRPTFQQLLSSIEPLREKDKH
UniProt P15056, 457-717 limits assumed, species assumed: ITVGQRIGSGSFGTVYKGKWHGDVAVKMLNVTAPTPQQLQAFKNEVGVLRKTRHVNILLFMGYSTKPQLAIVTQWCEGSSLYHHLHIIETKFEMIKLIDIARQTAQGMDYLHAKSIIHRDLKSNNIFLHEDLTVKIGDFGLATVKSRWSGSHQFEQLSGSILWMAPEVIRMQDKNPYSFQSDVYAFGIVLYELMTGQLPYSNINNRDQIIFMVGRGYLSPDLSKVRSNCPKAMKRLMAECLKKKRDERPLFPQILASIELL
UniProt P33981, 525-791 limits assumed, species assumed: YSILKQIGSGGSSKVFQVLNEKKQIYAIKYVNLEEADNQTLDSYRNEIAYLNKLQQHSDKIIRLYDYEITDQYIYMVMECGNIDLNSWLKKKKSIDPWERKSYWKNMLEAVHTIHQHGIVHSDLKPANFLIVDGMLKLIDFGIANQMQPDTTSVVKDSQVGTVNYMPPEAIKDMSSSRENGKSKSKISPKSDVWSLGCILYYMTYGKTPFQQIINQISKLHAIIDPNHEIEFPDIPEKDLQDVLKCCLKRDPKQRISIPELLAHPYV
UniProt P45983, 26-321 limits assumed, species assumed: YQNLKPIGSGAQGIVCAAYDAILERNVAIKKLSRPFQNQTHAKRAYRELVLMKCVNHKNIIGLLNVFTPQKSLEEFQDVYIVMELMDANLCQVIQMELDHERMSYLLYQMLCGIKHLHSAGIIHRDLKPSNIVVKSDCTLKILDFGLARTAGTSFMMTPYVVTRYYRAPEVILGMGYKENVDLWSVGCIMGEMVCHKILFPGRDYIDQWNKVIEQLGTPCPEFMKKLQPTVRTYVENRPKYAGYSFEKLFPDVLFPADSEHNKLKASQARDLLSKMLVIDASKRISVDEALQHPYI
UniProt P15735, 24-291 limits assumed: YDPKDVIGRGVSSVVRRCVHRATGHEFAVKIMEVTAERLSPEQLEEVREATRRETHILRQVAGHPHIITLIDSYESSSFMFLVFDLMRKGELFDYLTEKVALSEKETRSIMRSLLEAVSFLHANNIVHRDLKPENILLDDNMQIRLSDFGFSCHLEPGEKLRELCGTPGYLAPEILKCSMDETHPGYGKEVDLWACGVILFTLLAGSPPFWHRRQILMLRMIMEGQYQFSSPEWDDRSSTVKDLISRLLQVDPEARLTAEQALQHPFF
UniProt O94804, 36-294 limits assumed, species assumed: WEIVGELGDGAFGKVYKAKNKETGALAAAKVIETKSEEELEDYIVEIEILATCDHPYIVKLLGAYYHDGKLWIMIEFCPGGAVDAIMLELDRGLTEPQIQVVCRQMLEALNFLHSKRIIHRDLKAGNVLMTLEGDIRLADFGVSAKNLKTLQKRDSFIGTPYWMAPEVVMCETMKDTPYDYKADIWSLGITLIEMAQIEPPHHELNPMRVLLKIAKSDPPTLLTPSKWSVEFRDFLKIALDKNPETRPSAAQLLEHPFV
UniProt P28482, 25-313 limits assumed, species assumed: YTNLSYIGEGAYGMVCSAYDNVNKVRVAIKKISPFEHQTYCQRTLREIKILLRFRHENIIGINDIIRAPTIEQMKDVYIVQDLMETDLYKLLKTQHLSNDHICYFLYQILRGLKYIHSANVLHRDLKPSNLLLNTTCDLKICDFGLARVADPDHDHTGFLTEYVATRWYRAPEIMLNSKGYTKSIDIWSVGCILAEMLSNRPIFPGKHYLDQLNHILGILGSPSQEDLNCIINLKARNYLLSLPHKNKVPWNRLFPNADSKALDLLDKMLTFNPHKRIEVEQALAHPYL
UniProt Q96RR4, 165-446 limits assumed, species assumed: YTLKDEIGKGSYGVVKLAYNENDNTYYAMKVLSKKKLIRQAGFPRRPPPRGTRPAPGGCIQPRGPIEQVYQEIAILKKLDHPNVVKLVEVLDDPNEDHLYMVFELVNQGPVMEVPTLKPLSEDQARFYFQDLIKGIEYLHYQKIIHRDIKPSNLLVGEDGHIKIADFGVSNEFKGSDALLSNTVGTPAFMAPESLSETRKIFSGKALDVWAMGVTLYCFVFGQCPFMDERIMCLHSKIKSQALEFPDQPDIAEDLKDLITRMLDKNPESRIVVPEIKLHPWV
UniProt P34947, 186-448 limits assumed, species assumed: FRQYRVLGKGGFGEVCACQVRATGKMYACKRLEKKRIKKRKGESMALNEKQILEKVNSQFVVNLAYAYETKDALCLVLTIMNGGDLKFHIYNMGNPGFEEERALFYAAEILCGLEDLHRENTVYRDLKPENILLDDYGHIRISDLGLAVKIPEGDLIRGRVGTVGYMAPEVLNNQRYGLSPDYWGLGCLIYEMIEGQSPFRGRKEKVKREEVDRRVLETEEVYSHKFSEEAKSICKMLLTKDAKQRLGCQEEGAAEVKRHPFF
UniProt Q12888, 1484-1603 limits assumed, species assumed: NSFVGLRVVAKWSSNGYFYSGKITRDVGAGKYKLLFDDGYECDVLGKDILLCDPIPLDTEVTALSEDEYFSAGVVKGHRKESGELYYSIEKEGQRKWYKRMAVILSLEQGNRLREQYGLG
UniProt O14936, 12-276 limits assumed: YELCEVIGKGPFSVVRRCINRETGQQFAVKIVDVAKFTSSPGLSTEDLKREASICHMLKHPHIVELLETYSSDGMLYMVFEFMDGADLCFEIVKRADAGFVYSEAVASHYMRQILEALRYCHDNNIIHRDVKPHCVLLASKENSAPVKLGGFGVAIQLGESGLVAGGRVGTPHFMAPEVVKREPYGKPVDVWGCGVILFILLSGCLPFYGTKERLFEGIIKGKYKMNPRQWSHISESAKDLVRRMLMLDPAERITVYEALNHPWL
UniProt P00519, 242-493 limits assumed, species assumed: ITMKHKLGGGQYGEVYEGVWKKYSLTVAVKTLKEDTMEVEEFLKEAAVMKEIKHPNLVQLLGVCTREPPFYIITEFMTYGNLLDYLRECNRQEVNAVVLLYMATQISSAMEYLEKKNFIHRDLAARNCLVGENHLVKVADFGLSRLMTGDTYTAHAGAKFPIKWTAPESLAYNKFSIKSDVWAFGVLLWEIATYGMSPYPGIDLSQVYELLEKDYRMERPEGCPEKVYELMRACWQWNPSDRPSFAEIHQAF
UniProt Q2M2I8, 46-315 limits assumed, species assumed: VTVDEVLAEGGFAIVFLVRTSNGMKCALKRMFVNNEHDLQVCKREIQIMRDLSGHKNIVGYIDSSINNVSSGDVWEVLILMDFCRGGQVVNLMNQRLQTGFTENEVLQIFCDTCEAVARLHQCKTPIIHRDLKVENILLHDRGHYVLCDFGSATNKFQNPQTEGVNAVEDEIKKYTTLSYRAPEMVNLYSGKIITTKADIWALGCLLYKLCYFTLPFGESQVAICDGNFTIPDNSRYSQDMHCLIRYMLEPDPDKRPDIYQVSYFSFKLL

Legend:
BRPF3 [1] = biological target: T1, BRPF3 (Homo sapiens, UniProt Q9ULD4); design: purchased; method as in ref 11 (suppl.); details: ITC data; ref 11 (suppl.); cited from earlier work
SMARCA4 = SMARCA4 (Homo sapiens, UniProt P51532); experiment: BROMOscan ligand-binding assay
BRD7 = BRD7 (Homo sapiens, UniProt Q9NPI1); experiment: BROMOscan ligand-binding assay
BRPF3 [2] = biological target: T1, BRPF3; experiment: BROMOscan ligand-binding assay
BRD2(1,2) = BRD2(1,2) (Homo sapiens, UniProt P25440); experiment: BROMOscan ligand-binding assay
BRD2(2) = BRD2(2) (Homo sapiens, UniProt P25440); experiment: BROMOscan ligand-binding assay
BRD2(1) = BRD2(1) (Homo sapiens, UniProt P25440); experiment: BROMOscan ligand-binding assay
PIM1 = biological target: T2, PIM1 (Homo sapiens, UniProt P11309); experiment: Temperature shift assay (protein kinases); format: binding; details: 10 μM probe; average of three measurements
T2 construct: Recombinant protein domains (bromodomain or kinases) at a concentration of 2 μM

TDRD3 = TDRD3 (Homo sapiens, UniProt Q9H7E2); experiment: Temperature shift assay (non-BRD reader domains); details: 10µM compound
DYRK1A = biological target: T3, DYRK1A (Homo sapiens, UniProt Q13627); experiment: Temperature shift assay (protein kinases); format: binding; details: 10 μM probe; average of three measurements
T3 construct: Recombinant protein domains (bromodomain or kinases) at a concentration of 2 μM

PAK4 = biological target: T4, PAK4 (Homo sapiens, UniProt O96013); experiment: Temperature shift assay (protein kinases); format: binding; details: 10 μM probe; average of three measurements
T4 construct: Recombinant protein domains (bromodomain or kinases) at a concentration of 2 μM

FES = biological target: T5, FES (Homo sapiens, UniProt P07332); experiment: Temperature shift assay (protein kinases); format: binding; details: 10 μM probe; average of three measurements
T5 construct: Recombinant protein domains (bromodomain or kinases) at a concentration of 2 μM

SND1 = SND1 (Homo sapiens, UniProt Q7KZF4); experiment: Temperature shift assay (non-BRD reader domains); details: 10µM compound
CK2A1 = biological target: T6, CK2A1 (Homo sapiens, UniProt P68400); experiment: Temperature shift assay (protein kinases); format: binding; details: 10 μM probe; average of three measurements
T6 construct: Recombinant protein domains (bromodomain or kinases) at a concentration of 2 μM

EED = EED (Homo sapiens, UniProt O75530); experiment: Temperature shift assay (non-BRD reader domains); details: 10µM compound
WDR5 = WDR5 (Homo sapiens, UniProt P61964); experiment: Temperature shift assay (non-BRD reader domains); details: 10µM compound
CSNK1D = biological target: T7, CSNK1D (Homo sapiens, UniProt P48730); experiment: Temperature shift assay (protein kinases); format: binding; details: 10 μM probe; average of three measurements
T7 construct: Recombinant protein domains (bromodomain or kinases) at a concentration of 2 μM

EPHA2 = biological target: T8, EPHA2 (Homo sapiens, UniProt P29317); experiment: Temperature shift assay (protein kinases); format: binding; details: 10 μM probe; average of three measurements
T8 construct: Recombinant protein domains (bromodomain or kinases) at a concentration of 2 μM

DAPK3 = biological target: T9, DAPK3 (Homo sapiens, UniProt O43293); experiment: Temperature shift assay (protein kinases); format: binding; details: 10 μM probe; average of three measurements
T9 construct: Recombinant protein domains (bromodomain or kinases) at a concentration of 2 μM

UHRF1 = UHRF1 (Homo sapiens, UniProt Q96T88); experiment: Temperature shift assay (non-BRD reader domains); details: 10µM compound
RBBP1 = experiment: Temperature shift assay (non-BRD reader domains); format: binding; details: 10µM compound
GSG2 = biological target: T10, GSG2 (Homo sapiens, UniProt Q8TF76); experiment: Temperature shift assay (protein kinases); format: binding; details: 10 μM probe; average of three measurements
T10 construct: Recombinant protein domains (bromodomain or kinases) at a concentration of 2 μM

BRPF1 = BRPF1 (Homo sapiens, UniProt P55201); experiment: Temperature shift assay (non-BRD reader domains); format: binding; details: 10µM compound
RPS6KA1 = experiment: Temperature shift assay (protein kinases); format: binding; details: 10 μM probe; average of three measurements
BMX = biological target: T11, BMX (Homo sapiens, UniProt P51813); experiment: Temperature shift assay (protein kinases); format: binding; details: 10 μM probe; average of three measurements
T11 construct: Recombinant protein domains (bromodomain or kinases) at a concentration of 2 μM

BRAF = biological target: T12, BRAF (Homo sapiens, UniProt P15056); experiment: Temperature shift assay (protein kinases); format: binding; details: 10 μM probe; average of three measurements
T12 construct: Recombinant protein domains (bromodomain or kinases) at a concentration of 2 μM

TTK = biological target: T13, TTK (Homo sapiens, UniProt P33981); experiment: Temperature shift assay (protein kinases); format: binding; details: 10 μM probe; average of three measurements
T13 construct: Recombinant protein domains (bromodomain or kinases) at a concentration of 2 μM

MAPK8 = biological target: T14, MAPK8 (Homo sapiens, UniProt P45983); experiment: Temperature shift assay (protein kinases); format: binding; details: 10 μM probe; average of three measurements
T14 construct: Recombinant protein domains (bromodomain or kinases) at a concentration of 2 μM

STK3 = biological target: T15, STK3 (Homo sapiens, UniProt Q13188); experiment: Temperature shift assay (protein kinases); format: binding; details: 10 μM probe; average of three measurements
T15 construct: Recombinant protein domains (bromodomain or kinases) at a concentration of 2 μM

PHGK2 = biological target: T16, PHGK2 (Homo sapiens, UniProt P15735); experiment: Temperature shift assay (protein kinases); format: binding; details: 10 μM probe; average of three measurements
T16 construct: Recombinant protein domains (bromodomain or kinases) at a concentration of 2 μM

STK10 = biological target: T17, STK10 (Homo sapiens, UniProt O94804); experiment: Temperature shift assay (protein kinases); format: binding; details: 10 μM probe; average of three measurements
T17 construct: Recombinant protein domains (bromodomain or kinases) at a concentration of 2 μM

MERTK = biological target: T18, MERTK (Homo sapiens, UniProt Q12866); experiment: Temperature shift assay (protein kinases); format: binding; details: 10 μM probe; average of three measurements
T18 construct: Recombinant protein domains (bromodomain or kinases) at a concentration of 2 μM

MAPK1 = biological target: T19, MAPK1 (Homo sapiens, UniProt P28482); experiment: Temperature shift assay (protein kinases); format: binding; details: 10 μM probe; average of three measurements
T19 construct: Recombinant protein domains (bromodomain or kinases) at a concentration of 2 μM

AURKB = biological target: T20, AURKB (Homo sapiens, UniProt Q96GD4); experiment: Temperature shift assay (protein kinases); format: binding; details: 10 μM probe; average of three measurements
T20 construct: Recombinant protein domains (bromodomain or kinases) at a concentration of 2 μM

CAMKK2 = biological target: T21, CAMKK2 (Homo sapiens, UniProt Q96RR4); experiment: Temperature shift assay (protein kinases); format: binding; details: 10 μM probe; average of three measurements
T21 construct: Recombinant protein domains (bromodomain or kinases) at a concentration of 2 μM

GPRK5 = biological target: T22, GPRK5 (Homo sapiens, UniProt P34947); experiment: Temperature shift assay (protein kinases); format: binding; details: 10 μM probe; average of three measurements
T22 construct: Recombinant protein domains (bromodomain or kinases) at a concentration of 2 μM

CAMK1G = biological target: T23, CAMK1G (Homo sapiens, UniProt Q96NX5); experiment: Temperature shift assay (protein kinases); format: binding; details: 10 μM probe; average of three measurements
T23 construct: Recombinant protein domains (bromodomain or kinases) at a concentration of 2 μM

53BP1 = 53BP1 (Homo sapiens, UniProt Q12888); experiment: Temperature shift assay (non-BRD reader domains); details: 10µM compound
CASK = biological target: T24, CASK (Homo sapiens, UniProt O14936); experiment: Temperature shift assay (protein kinases); format: binding; details: 10 μM probe; average of three measurements
T24 construct: Recombinant protein domains (bromodomain or kinases) at a concentration of 2 μM

BRPF3 [3] = biological target: BRPF3 (Homo sapiens, UniProt Q9ULD4); experiment: Temperature shift assay (non-BRD reader domains); details: 10µM compound
ABL1 = biological target: T25, ABL1 (Homo sapiens, UniProt P00519); experiment: Temperature shift assay (protein kinases); format: binding; details: 10 μM probe; average of three measurements
T25 construct: Recombinant protein domains (bromodomain or kinases) at a concentration of 2 μM

AAK1 = biological target: T26, AAK1 (Homo sapiens, UniProt Q2M2I8); experiment: Temperature shift assay (protein kinases); format: binding; details: 10 μM probe; average of three measurements
T26 construct: Recombinant protein domains (bromodomain or kinases) at a concentration of 2 μM

FXR1 = FXR1 (Homo sapiens, UniProt P51114); experiment: Temperature shift assay (non-BRD reader domains); details: 10µM compound
[4] = system: BT-549 and MDA-MB436 cell lines; experiment: JQ1 dose-response with or without BAY-876; format: cell-based, human; details: with or without 3 μM BAY-876, 7 days

## COc1cc(C#N)ccc1S(=O)(=O)Nc1ccc2c(c1)cc(C)c(=O)n2C [NIC57]
BRPF3 [1]
  Kd: 409 nM

## COc1ccc(CCc2nc3cc(-c4c(C)noc4C)ccc3n2C[C@H](C)N2CCOCC2)cc1Cl [SGC-CBP30]
SMARCA4; KD (BROMOscan), sheet prints no unit (nM)
  Kd: > 30000 nM
SMARCA4; KD, BROMOscan, SMARCA4
  Kd: > 100000 nM

## COc1cc(C#N)ccc1S(=O)(=O)Nc1ccc2c(c1)cc(C)c(=O)n2C [NI 57]
BRD7
  Kd: 100 nM
BRPF3 [2]
  Kd: 110 nM

## CCOC(=O)Nc1cc(-c2ccc(C)c(NS(C)(=O)=O)c2)nn2c(C)nnc12 [Bromosporine]
BRD2(1,2)
  Kd: 66.5 nM
BRD2(2)
  Kd: 84 nM
BRD2(1)
  Kd: 220 nM

## CCCS(=O)(=O)c1nc(NC2CC2)cc(-c2ccc3c(ccn3C3CC(C)(C)NC(C)(C)C3)c2)n1 [NVS-CECR2-1]
PIM1
  Temperature shift: 0.4 Kelvin
TDRD3
  Tm (C) 10µM, temperature shift: -3.3 Kelvin
DYRK1A
  Temperature shift: -0.3 Kelvin
PAK4
  Temperature shift: -0.1 Kelvin
FES
  Temperature shift: -0.5 Kelvin
SND1
  Tm (C) 10µM, temperature shift: -1.7 Kelvin
CK2A1
  Temperature shift: -1.0 Kelvin
EED
  Tm (C) 10µM, temperature shift: -1.0 Kelvin
WDR5
  Tm (C) 10µM, temperature shift: -0.2 Kelvin
CSNK1D
  Temperature shift: 0.4 Kelvin
EPHA2
  Temperature shift: 1.5 Kelvin
DAPK3
  Temperature shift: 0.7 Kelvin
UHRF1
  Tm (C) 10µM, temperature shift: -0.3 Kelvin
RBBP1
  Tm (C) 10µM, temperature shift: -1.0 Kelvin
GSG2
  Temperature shift: 0.2 Kelvin
BRPF1
  Tm (C) 10µM, temperature shift: -0.2 Kelvin
RPS6KA1
  Temperature shift: 0.2 Kelvin
BMX
  Temperature shift: 0.0 Kelvin
BRAF
  Temperature shift: -0.1 Kelvin
TTK
  Temperature shift: 0.4 Kelvin
MAPK8
  Temperature shift: -0.3 Kelvin
STK3
  Temperature shift: -0.1 Kelvin
PHGK2
  Temperature shift: -0.2 Kelvin
STK10
  Temperature shift: -0.1 Kelvin
MERTK
  Temperature shift: 0.0 Kelvin
MAPK1
  Temperature shift: 0.3 Kelvin
AURKB
  Temperature shift: 0.3 Kelvin
CAMKK2
  Temperature shift: -0.3 Kelvin
SMARCA4; KD, BROMOscan, SMARCA4
  Kd: > 30000 nM
GPRK5
  Temperature shift: -0.1 Kelvin
CAMK1G
  Temperature shift: -0.4 Kelvin
53BP1
  Tm (C) 10µM, temperature shift: -0.6 Kelvin
CASK
  Temperature shift: 0.1 Kelvin
BRPF3 [3]
  Tm (C) 10µM, temperature shift: -0.3 Kelvin
ABL1
  Temperature shift: 0.0 Kelvin
AAK1
  Temperature shift: -0.7 Kelvin
FXR1
  Tm (C) 10µM, temperature shift: -5.1 Kelvin

## Cc1sc2c(c1C)C(c1ccc(Cl)cc1)=NC(CC(=O)OC(C)(C)C)c1nnc(C)n1-2 (stereo not shown) [JQ1]
[4]
  synergy with BAY-876: no significant effect
